Assay: Bioavailability of oral ibuprofen formulations in vagal-suppressed (propantheline-treated, Pain Model) rats
Format: in vivo, Sprague-Dawley rats
Details: 20 mg/kg ibuprofen oral as crushed tablets
Procedure: The animal models are Adult male Sprague-Dawley rats with body weight of 250-300 g, and which were cared for in accordance with the principles and guidelines of the Canadian Council of Animal Care. All rats were catheterized in the right jugular vein for sample collection.
An animal model having suppressed vagal properties were produced by administering (intraperitoneal injection) to the rats two 20 mg/kg doses of propantheline (test, n=6), an anticholinergic agent with known vagal suppressive properties, the first dose at 2 hours prior to administration of an NSAID, and the second at 1 hour prior.
The tablets were crushed gently and small pieces were administered into the stomach via a plastic tube followed by 0.5 mL tap water. […] They had free access to water.

## CC(C)Cc1ccc(C(C)C(=O)O)cc1 (racemic) [ibuprofen, (±)-2-(4-Isobutylphenyl)propionic acid]
  AUC (0-1): 12.2 μg/h/mL^−1

From US20020192161A1, “Animal model for evaluating analgesics” (priority 2001, published 2002)
